This is an account of results in patent US10954214B2 (Janssen Pharmaceutica NV, priority 2016, dated 2021).

One assay relates to OCI-Ly3 cells. The assay is described as follows: 4-day proliferation assay, OCI-Ly3. Format: cell-based. The settings on record: Homo sapiens, 96 h, 4 days incubation, CellTiterGLO, read-out: Anti-proliferation: OCI-LY-3 IC50. On the procedure:
(§1) To assess anti-proliferative effects, MALT1 inhibitor test compounds were tested in 4-day proliferation assays using three different DLBCL cell lines.
(§2) OCI-Ly3 cells were propagated in RPMI-1640 (Sigma Aldrich) supplemented with 10% fetal bovine serum (HyClone), 2 mM L-glutamine (Sigma Aldrich) and 1% PenStrep (Sigma Aldrich). TMD8 cells were propagated in RPMI-1640 (Sigma Aldrich) supplemented with 10% fetal bovine serum (HyClone), 1 mM sodium pyruvate (Invitrogen), 2 mM L-glutamine (Sigma Aldrich) and 1% PenStrep (Sigma Aldrich). Cells should be kept between 0.5-2.5 million cells per mL during culturing and cells should be supplemented every 2-3 days with fresh 50 μM beta-mercaptoenthanol. No beta-mercaptoethanol is used during the proliferation assay. OCI-Ly7 cells were propagated in IMDM (ThermoFisher) supplemented with 10% fetal bovine serum (HyClone), 2 mM L-glutamine (Sigma Aldrich) and 50 μg/mL Gentamycin. […]
(§3) To assess anti-proliferative effects, 400 nL of test compounds were spotted per well of 96-well plates (Costar, catalogue number 3904). […] After 4 days of incubation 50 μL CellTiterGLO reagent (Promega) were added to each well and luminescence was measured on the Envision after 10 min of incubation at room temperature.
(§4) IC50 values were calculated using the following formula (Z prime should be >0.5): […]
A general note: Cellular ATP, detected with luciferase, serves as a proxy for viable cell number.

A further assay has as its system TMD8 cells. Nature of the assay: 4-day proliferation assay, TMD8. Format: cell-based. The settings on record: Homo sapiens, 96 h, 4 days incubation, CellTiterGLO, read-out: Anti-proliferation: TMD-8 IC50. Here is the method:
as §1, §2, §3, §4

Consider `O=C(Nc1ccnc(C(F)(F)F)c1)c1cnn(-c2cccc3c(=O)[nH]ccc23)c1C(F)(F)F` [Cpd 158, 1-(1-oxo-1,2-dihydroisoquinolin-5-yl)-5-(trifluoromethyl)-N-(2-(trifluoromethyl)pyridin-4-yl)-1H-pyrazole-4-carboxamide], for which the IC50 is 567 nM with OCI-Ly3 cells and 4570 nM in the assay with TMD8 cells.
